Binding of CDR-mutated scFvs to a peptide of the spike HR2 region

Binding partner: SARS-CoV-2 spike HR2 peptide, sequence PDVDLGDISGINAS.

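Variants in AAYL49 differ from the parent at up to three CDR positions; double and triple changes were sampled at random. The assay is AlphaSeq: two haploid yeast populations carry antibody and antigen on their surface. After mating in shaken culture at 30 °C for 16 h, diploids were selected and their barcode pairs sequenced. A regression on co-assayed BCL2-family reference pairs converts the normalised counts of each replicate to an apparent Kd. Mating was done three times.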

The variants keep the light chain, the linker and the frameworks of Ab-14 (scFv order VH, the linker GGGGSGGGGSGGGGS, VL).
VH: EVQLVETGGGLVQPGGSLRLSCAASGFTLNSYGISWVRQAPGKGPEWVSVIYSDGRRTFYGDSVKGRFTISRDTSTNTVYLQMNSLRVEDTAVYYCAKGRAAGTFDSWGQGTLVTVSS
VL: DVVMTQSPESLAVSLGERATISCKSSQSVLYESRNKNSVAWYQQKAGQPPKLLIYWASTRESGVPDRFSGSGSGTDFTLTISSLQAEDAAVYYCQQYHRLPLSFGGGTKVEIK

The parent's heavy chain CDRs are GFTLNSYGIS, VIYSDGRRTFYGDSVK, GRAAGTFDS; each variant's own CDRs replace them letter for letter. This list gathers variants with a substitution at A101 (VH, numbered from residue 1). The Kd shown is the geometric mean over detected replicates; a lower Kd is a better binder. Where no diploid with the target was found in any replicate, the entry reads "nd": below detection, most likely a poor binder, though not proof of it.

The variant GFTLNSYGIS | VIYSDGRRTFYGDTNK | GRLAGTFDS showed 1.6 µM (3 of 3 replicates; controls 3 of 9). For GFTLNSYGIS | VIYSDGRRRFYGDSVK | GRGAGTFKS, the assay gave 810 nM (1 of 3 replicates; controls 0 of 9). The variant GFTLNSAGIS | VIYSDGRRTFYGDSVK | GREWGTFDS gave nd (0 of 3 replicates; controls 4 of 9). For FFTLNSYGIS | VIYSDGRMTFYGDSVK | GRMAGTFDS, the assay gave 1.6 µM (1 of 3 replicates; controls 0 of 9). The variant GFTLNSYGIS | VIYSDGRRTFYGDSVK | GRSWGEFDS gave nd (0 of 3 replicates; controls 3 of 9). With GGTLNSYGIS | VIYSDGRRTFYGDSVK | GRCAGMFDS the result was 76 nM (3 of 3 replicates; controls 4 of 9). With GFTLNSYGIS | VIYSDGRRTFYGDSVK | QQHAGTFDS the result was 4.8 µM (1 of 3 replicates; controls 3 of 9). For GFTLNSYGIS | VIYSDGRRTFYGDSVK | WRMAGTFDS, the assay gave nd (0 of 3 replicates; controls 0 of 9). With GFTLNSYGIS | FIYSDGRRTFYGDSVK | GRYAGTEDS the result was nd (0 of 3 replicates; controls 0 of 9).

The variant GFTLNSTGIS | VIYSDGRRTFYGDSVK | GRSAGTFDS gave 360 nM (1 of 3 replicates; controls 1 of 9). With GFTLNSYGIS | CIYSDGRRTFYGDSVK | GNHAGTFDS the result was 2.1 µM (3 of 3 replicates; controls 6 of 9). The variant GFTDNSYGIS | VIYSDGRRTFYGDSVK | GRNAGTFDS showed nd (0 of 3 replicates; controls 0 of 9). For GFTLNSYGIS | VIYSDGRRTFYADSVT | GRGAGTFDS, the assay gave nd (0 of 3 replicates; controls 0 of 9). The variant GFTLNSYGIS | VLYSDGRRAFYGDSVK | GRSAGTFDS showed 20 nM (3 of 3 replicates; controls 2 of 9). For GRTGNSYGIS | VIYSDGRRTFYGDSVK | GRVAGTFDS, the assay gave 360 nM (2 of 3 replicates; controls 0 of 9). With GFTLNSYGIS | VQYSDGRRTFYGDSVK | GRRAGTFDS the result was nd (0 of 3 replicates; controls 0 of 9). The variant GFTDNSYGIS | VIYSDWRRTFYGDSVK | GRCAGTFDS showed 5.2 µM (1 of 3 replicates; controls 0 of 9). The variant GFTLNSYGIS | VIYSDGRRTFYGDSVK | GREAGTFDS gave 210 nM (3 of 3 replicates; controls 0 of 9).

The variant GFTLQSYGIS | EIYSDGRRTFYGDSVK | GRDAGTFDS gave nd (0 of 3 replicates; controls 0 of 9). With GFTLNSYGIS | VIYSDGRRTFYGDSVK | GRNAGQLDS the result was 160 µM (2 of 3 replicates; controls 4 of 9). With GFTLNSYGIS | VIYSDDRRTFYGDSVK | GVQAGTFDS the result was 33 µM (1 of 3 replicates; controls 1 of 9). The variant GFTLNSYGIS | VIYSDGSRTFLGDSVK | GRVAGTFDS showed 11 nM (3 of 3 replicates; controls 0 of 9). The variant GFTLISYGIS | VTYSDGRRTFYGDSVK | GRCAGTFDS gave nd (0 of 3 replicates; controls 1 of 9). For GFTLNSYGIS | VIYSDGRLTFYGDIVK | GRPAGTFDS, the assay gave 5.3 µM (1 of 3 replicates; controls 1 of 9). The variant GFTLNSYGAS | VIYSDGRRTFYGDSVK | GNRAGTFDS gave 24 µM (1 of 3 replicates; controls 2 of 9). With GFTYNSYGIS | VIYSDGRRTFYGASVK | GRTAGTFDS the result was nd (0 of 3 replicates; controls 0 of 9). For GFTLNSYGIS | VIYSDTRRTFYKDSVK | GREAGTFDS, the assay gave 71 µM (1 of 3 replicates; controls 3 of 9).

With GFTLNYYGIS | VIYCDGRRTFYGDSVK | GRPAGTFDS the result was 110 µM (1 of 3 replicates; controls 3 of 9). The variant GFTLNSYGIS | VIYSDGRRTFYGDSML | GRVAGTFDS gave 33 nM (3 of 3 replicates; controls 0 of 9). With GFTLNSYGIS | VIISDGRRTFYGDSVK | GRKAGTFDV the result was 2.8 µM (1 of 3 replicates; controls 0 of 9). The variant GFTLNSYGIS | VIYSDGRRTFYGDSVK | GRFSGTIDS showed 4.5 nM (3 of 3 replicates; controls 1 of 9). The variant GFTLNSYGIS | VIYSDGRRTFYGDSVK | GRDAGTFDS showed 16 nM (3 of 3 replicates; controls 6 of 9). The variant CFTLNSYGIS | VIYSDLRRTFYGDSVK | GRHAGTFDS gave nd (0 of 3 replicates; controls 0 of 9).

The 3 strongest on average among those seen in every replicate, once more:

| CDR-H1 | CDR-H2 | CDR-H3 | Kd | detected | signal with controls |
|---|---|---|---|---|---|
| GFTLNSYGIS | VIYSDGRRTFYGDSVK | GRFSGTIDS | 4.5 nM | 3 of 3 | 1 of 9 |
| GFTLNSYGIS | VIYSDGSRTFLGDSVK | GRVAGTFDS | 11 nM | 3 of 3 | 0 of 9 |
| GFTLNSYGIS | VIYSDGRRTFYGDSVK | GRDAGTFDS | 16 nM | 3 of 3 | 6 of 9 |

Parent in this assay: reference entry 4.4 nM, copy in this library 13 µM (one replicate of three). As a blank, each scFv also met three strains without target: over library AAYL49, 15% of these pairings were detected, typically at 11 µM and seldom below 680 nM. For each scFv, signals with the empty controls are counted beside the result.

Values reported by Engelhart et al. 2022, doi:10.1038/s41597-022-01779-4 (FLAb copy).